# According to patent US8696867B2, “Disulfo-type fluorescent whitening agents” (Blankophor GmbH & Co. KG, priority 2009, dated 2014):
# Assay: Solubility of fluorescent whitening agent in distilled water (saturated solution)
# Type: physicochemical
# Description: The solubility of the fluorescent whitening agents was determined as follows: a dry powder of fluorescent whitening agent was added to 50 ml of distilled water until the saturation point was reached. The thus obtained saturated solution was filtered, dried and the dried residue was weighted.
# The following results were obtained: 27.8% for FWA 1; 24.2% for FWA 2; and 6.9% for Comparative 1, all at ambient temperature (about 22° C.). The indicated percentages are based on the amount of grams of fluorescent whitening agent dissolved in 100 g of the corresponding saturated FWA solution.
compound,measurement,value
"O=S(=O)([O-])c1cc(Nc2nc(Nc3ccccc3)nc(N(CCO)CCO)n2)ccc1/C=C/c1ccc(Nc2nc(Nc3ccccc3)nc(N(CCO)CCO)n2)cc1S(=O)(=O)[O-].[Na+].[Na+] [Comparative 1, reference compound]",solubility,6.9%
